Experiment [1] has as its system MCP-1 induced THP-1 migration. The experiment in a line: THP-1 trans-well migration assay, MCP-1 as chemoattractant. The experiment is classed as cell-based, human. Particulars: agent with the cells in the upper compartment; n.s. = no statistically significant inhibition (p > 0.05); read-out: ED50 versus MCP-1, inhibition of THP-1 migration. As for the experimental part:
(§1) To determine whether an agent inhibits a chemokine-induced activity, such as macrophage recruitment, varying amounts of the agent are mixed with cells in the presence of a known chemoattractant. For example, a range of known concentrations of an agent, e.g., a chemokine peptide, is incubated with a defined number (e.g., 10^4-10^6) of human THP-1 monocyte cells in individual wells of the top compartment of a trans-well plate. Chemokine (such as MCP-1, MIP1α, IL8 or SDF-1α), at a concentration known to cause significant migration of THP-1 cells in the trans-well migration assay, is placed in the lower compartment (FIG. 1). […] A standard curve consisting of a two-fold dilution series of THP-1 cells (in 29 μl) is prepared to accurately quantify the number of cells that have migrated. […] Absorbance of converted dye is measured at a wavelength of 595 nm using an ELISA plate reader. The number of migrated cells in each well is then determined by interpolation of the standard curve (see also Imai et al., J. Biol. Chem., 272, 15036 (1997)). […]
(§2) After incubation, the cells were gently removed from the top of the filter with a pipette, 20 μl of 20 mM EDTA in PBS was added into each top well, and the mixture was incubated for 20 minutes at 4° C. […] A standard curve was prepared to accurately quantify the number of THP-1 cells that had migrated. […]

In experiment [2] the test system is IL8 induced THP-1 migration. The experiment in a line: THP-1 trans-well migration assay, IL-8 as chemoattractant. The experiment is classed as cell-based, human. Particulars: n.s. = no statistically significant inhibition (p > 0.05); read-out: ED50 versus IL8, inhibition of THP-1 migration. As for the experimental part:
as §1, §2

Experiment [3] deals with SDF-1α induced THP-1 migration. The experiment in a line: THP-1 trans-well migration assay, SDF-1α as chemoattractant. The note with it: n.s. = no statistically significant inhibition (p > 0.05); read-out: ED50 versus SDF-1α, inhibition of THP-1 migration. The experiment is classed as cell-based, human. As for the experimental part:
as §1, §2

Experiment [4] concerns TGFβ1 induced THP-1 migration. The experiment in a line: THP-1 trans-well migration assay, TGFβ1 as non-chemokine control. The class given is cell-based, human. Particulars: n.s. = no statistically significant inhibition (p > 0.05). As to the method:
Any method suitable for counting cells can be used, for example, counting with a hemocytometer, incubation of the cells with MTT (see above), or FACS analysis. A negative control assay is also performed, using TGF-β or another non-chemokine chemoattractant (e.g., IL1β or TNFα). To assess whether the agent is cytotoxic, the same concentrations of agent are incubated with THP-1 cells. Agents which 1) are not cytotoxic at levels which inhibit migration, 2) are ineffective at inhibiting the negative control-induced migration, and 3) reduce or inhibit chemokine-induced THP-1 migration, are agents which fall within the scope of the invention.
Chemotaxis was induced in a 96-well disposable chemotaxis chamber fitted with a […] polycarbonate filter (PVP free, ChemoTX, Neuroprobe Inc., Cabin John). […] The framed filter was aligned with the holes in the corner of the filter frame and placed over the wells. […] Peptides were dissolved in Milli Q water and then serially diluted in culture medium. In most cases, the serially diluted peptides were added to the upper compartment of the chemotaxis chamber. The chamber was incubated at 37° C. in a humidified atmosphere of 5% CO2 for 4 hours.
After incubation, the cells were gently removed from the top of the filter with a pipette, 20 μl of 20 mM EDTA in PBS was added into each top well, and the mixture was incubated for 20 minutes at 4° C. […]

The subject of experiment [5] is RANTES induced THP-1 migration. In words: THP-1 trans-well migration assay, RANTES as chemoattractant. The class given is cell-based, human. The note with it: mean of at least two determinations; read-out: ED50 versus RANTES, inhibition of THP-1 migration. As for the experimental part: as §1, §2
The subject of experiment [6] is chemokine-induced THP-1 migration. In words: THP-1 trans-well migration assay, panel of chemokines (MCP-1, MIP1α, IL-8, SDF1α). The experiment is classed as cell-based, human. Particulars: average inhibitory ED50 versus SDF1 and IL8 divided by average inhibitory ED50 versus MCP-1 and MIP1α.
Experiment [7] concerns the target T1, Duffy Antigen Receptor for Chemokines (DARC) (Homo sapiens, UniProt Q16570).
T1 sequence (Q16570 1-336): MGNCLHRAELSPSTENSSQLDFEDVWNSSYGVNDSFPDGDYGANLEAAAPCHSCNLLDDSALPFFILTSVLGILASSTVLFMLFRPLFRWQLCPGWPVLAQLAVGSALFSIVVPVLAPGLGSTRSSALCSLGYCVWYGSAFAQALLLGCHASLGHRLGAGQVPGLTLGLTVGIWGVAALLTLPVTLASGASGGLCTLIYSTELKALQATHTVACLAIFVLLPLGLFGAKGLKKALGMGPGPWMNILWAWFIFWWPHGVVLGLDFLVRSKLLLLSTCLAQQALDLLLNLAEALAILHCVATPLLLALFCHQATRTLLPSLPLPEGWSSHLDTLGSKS
In words: DARC binding: competition with 125I-MCP-1 on red blood cells. The note with it: for DUFFY SELECTIVITY (DARC specificity ratio): estimated ka for binding to red blood cells divided by average inhibitory ED50 versus each of the chemokines.

Where “and” joins values, the source holds several entries; their conditions need not be identical. Identical values can stand only once. Bounds are passed on as bounds.

In general, Kd refers to the concentration at which binding is half-saturated. Low values mean tighter binding, high ones weaker binding. As to `CC(C)[C@H](NC(=O)[C@@H](N)Cc1c[nH]c2ccccc12)C(=O)N[C@@H](CCC(N)=O)C(=O)O` [WVQ], the EC50 in experiment [1] is 8000 nM; in experiment [2], < 1000 nM and 1000 nM; in experiment [3] it was < 1000 nM and 2000 nM; in experiment [5] it was 1500 nM. In experiment [4], the “ED50 versus TGFβ1, inhibition of THP-1 migration” value was “n.s”. The “CC SPECIFICITY” value in experiment [6] was determined as 1.1. This molecule returned a Kd in experiment [7] of 2000 nM. Moreover, the “DUFFY SELECTIVITY (DARC specificity ratio)” value in experiment [7] is 10; in experiment [7] (listed as Pep3[10-12]) it was 24.81.

Values taken from patent US7989466B2, “Methods to inhibit or augment an inflammatory response” (Cambridge Enterprise Limited, priority 1999, dated 2011).
